Protein sequences, listed by entry. Tags and fused reporters are not part of them. Residues count along the entry.
UniProt P09483, 31-630 limits assumed: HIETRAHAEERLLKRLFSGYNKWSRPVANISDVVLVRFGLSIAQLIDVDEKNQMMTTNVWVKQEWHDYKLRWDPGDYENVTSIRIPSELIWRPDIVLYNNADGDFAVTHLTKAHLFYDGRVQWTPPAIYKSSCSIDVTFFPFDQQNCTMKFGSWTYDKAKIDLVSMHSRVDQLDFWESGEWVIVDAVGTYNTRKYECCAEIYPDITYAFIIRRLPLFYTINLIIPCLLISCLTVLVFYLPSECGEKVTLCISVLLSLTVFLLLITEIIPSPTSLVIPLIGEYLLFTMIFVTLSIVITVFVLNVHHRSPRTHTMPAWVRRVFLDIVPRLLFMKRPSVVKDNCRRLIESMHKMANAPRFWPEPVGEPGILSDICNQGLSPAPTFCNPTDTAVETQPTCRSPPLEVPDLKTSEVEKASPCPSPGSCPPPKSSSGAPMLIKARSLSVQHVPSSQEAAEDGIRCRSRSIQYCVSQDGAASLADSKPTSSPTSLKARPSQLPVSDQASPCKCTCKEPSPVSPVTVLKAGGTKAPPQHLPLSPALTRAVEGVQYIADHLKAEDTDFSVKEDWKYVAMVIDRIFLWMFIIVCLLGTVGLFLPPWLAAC
UniProt P12390, 25-500 limits assumed: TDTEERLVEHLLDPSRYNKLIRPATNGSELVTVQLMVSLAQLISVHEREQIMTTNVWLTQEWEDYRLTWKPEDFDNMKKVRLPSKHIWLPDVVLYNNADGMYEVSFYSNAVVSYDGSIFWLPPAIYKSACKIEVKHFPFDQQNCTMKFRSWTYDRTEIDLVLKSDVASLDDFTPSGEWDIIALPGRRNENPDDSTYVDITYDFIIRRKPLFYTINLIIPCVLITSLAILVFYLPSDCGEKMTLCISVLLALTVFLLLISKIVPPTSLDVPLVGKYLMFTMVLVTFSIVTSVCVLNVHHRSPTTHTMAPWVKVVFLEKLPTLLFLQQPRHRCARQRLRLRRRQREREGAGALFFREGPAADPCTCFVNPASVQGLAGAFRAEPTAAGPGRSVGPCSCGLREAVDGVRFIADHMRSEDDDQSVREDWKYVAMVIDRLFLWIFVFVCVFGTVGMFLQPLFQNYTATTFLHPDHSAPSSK

According to patent US9150581B2, “Nicotinic receptor compounds” (priority 2011, dated 2015):

What was measured:
mice [1] = test: Antagonism of nicotine antinociception, tail-flick; type: in vivo, mouse; settings: for AD50 Tail-Flick: mice pretreated sc 10 min before nicotine 2.5 mg/kg sc
α4β2 nAChR = α4β2 nAChR (Rattus norvegicus (Rat), UniProt P09483+P12390); test: Inhibition of [3H]epibatidine binding at the α4β2 nAChR in male rat cerebral cortex; settings: for Ki: read-out: αβ [3H]Epibatidine (Ki), tested form: HCl
mice [2] = test: Hot-plate test (antinociception); type: in vivo, mouse; settings: @ 10 mg/kg, sc
mice [3] = test: Antagonism of nicotine antinociception, hot-plate; type: in vivo, mouse; settings: for AD50 Hot-Plate: mice pretreated sc 10 min before nicotine 2.5 mg/kg sc; for Antagonism Hot-Plate, % at dose: @ 10000 μg/kg, before nicotine 2.5 mg/kg sc
mice [4] = test: Hypothermia (rectal temperature); type: in vivo, mouse; settings: sc; for Hypothermia, % effect at dose: @ 10 mg/kg
mice [5] = test: Tail-flick test (antinociception); type: in vivo, mouse; settings: @ 10 mg/kg, sc
mice [6] = test: Spontaneous activity (photocell activity cages); type: in vivo, mouse; settings: sc; for Spontaneous Activity, % effect at dose: @ 10 mg/kg
Male ICR adult mice = test: Nicotine conditioned place preference (CPP) test; settings: mouse, in vivo
Male Sprague-Dawley rats [7] = system: Male Sprague-Dawley rats
Male Sprague-Dawley rats [8] = settings: s.c., compound alone

O=[N+]([O-])c1cccc(-c2cc(C3CC4CCC3N4)cnc2F)c1 (stereo not shown)
AD50 Tail-Flick (mice [1]): 0.0005 mg/kg
Hill slope, αβ [3H]Epibatidine binding (α4β2 nAChR): (1.04 ± 0.004)
Hot-Plate, % effect at dose (mice [2]): 20% @ 10
AD50 Hot-Plate (mice [3]): 0.13 mg/kg
Hypothermia, % effect at dose (mice [4]): 0% @ 10
Tail-Flick, % effect at dose (mice [5]): 3% @ 10

NS(=O)(=O)c1ccc(-c2cc([C@H]3C[C@@H]4CC[C@H]3N4)cnc2F)cc1 (relative stereo)
AD50 Tail-Flick (mice [1]; tested form: HCl): 1.6 mg/kg
Ki (α4β2 nAChR): 0.03 nM
Hot-Plate, % effect at dose (mice [2]; tested form: HCl): 15% @ 10
Antagonism Hot-Plate, % at dose (mice [3]; tested form: HCl): 50% @
ED50 Spontaneous Activity (mice [6]; tested form: HCl): 4.2 mg/kg
Hypothermia, % effect at dose (mice [4]; tested form: HCl): 0% @ 10
Tail-Flick, % effect at dose (mice [5]; tested form: HCl): 3% @ 10

O=S(=O)(c1ccc(-c2cc([C@H]3C[C@@H]4CC[C@H]3N4)cnc2F)cc1)C(F)(F)F (relative stereo)
AD50 Tail-Flick (mice [1]; tested form: HCl): 0.0009 mg/kg
Ki (α4β2 nAChR): 0.94 nM
Hot-Plate, % effect at dose (mice [2]; tested form: HCl): 19% @ 10
AD50 Hot-Plate (mice [3]; tested form: HCl): 0.01 mg/kg
Spontaneous Activity, % effect at dose (mice [6]; tested form: HCl): 5% @ 10
Hypothermia, % effect at dose (mice [4]; tested form: HCl): 0% @ 10
Tail-Flick, % effect at dose (mice [5]; tested form: HCl): 4% @ 10

CS(=O)(=O)c1ccc(-c2cc(C3CC4CCC3N4)cnc2F)cc1 (single isomer, unassigned)
AD50 Tail-Flick (mice [1]): 0.00011 mg/kg
Hot-Plate, % effect at dose (mice [2]): 10% @ 10
AD50 Hot-Plate (mice [3]): 2.76 mg/kg
Spontaneous Activity, % effect at dose (mice [6]): 0% @ 10
Hypothermia, % effect at dose (mice [4]): 0% @ 10
Tail-Flick, % effect at dose (mice [5]): 3% @ 10

O=[N+]([O-])c1ccc(-c2cc(C3CC4CCC3N4)cnc2F)cc1 (single isomer, unassigned)
Antagonism Tail-Flick, % at dose (mice [1]; @ 10000 μg/kg, before nicotine 2.5 mg/kg sc): 0% @ 10000
AD50 Tail-Flick (mice [1]): 0.002 mg/kg
AD50 Tail-Flick (mice [1]; listed as (±)-102): 0.003 mg/kg
Hill slope, αβ [3H]Epibatidine binding (α4β2 nAChR): (0.68 ± 0.09)
Hot-Plate, % effect at dose (mice [2]): 22% @ 10
Antagonism Hot-Plate, % at dose (mice [3]): 0% @ 10000
AD50 Hot-Plate (mice [3]): 0.18 mg/kg
AD50 Hot-Plate (mice [3]; listed as (±)-102): 0.12 mg/kg
ED50 Spontaneous Activity (mice [6]): 0.57 mg/kg
Blockade of nicotine CPP (Male ICR adult mice): dose-dependently blocked nicotine CPP
Preference or aversion induced by compound itself in CPP (Male ICR adult mice): did not induce significant preference or aversion
Nicotine-appropriate responding (Male Sprague-Dawley rats [7]; at doses that suppressed rates of responding): around 30%
Effect on rates of responding (Male Sprague-Dawley rats [7]; compound alone): suppressed rates of responding
ED50 Hypothermia (mice [4]): 2.2 mg/kg
Tail-Flick, % effect at dose (mice [5]): 10% @ 10
Effect on blood pressure (Male Sprague-Dawley rats [8]): sustained increases in blood pressure
Effect on heart rate (Male Sprague-Dawley rats [8]): minimal effects on heart rate
